From patent US12214059B2, “Cleavable radioligands for targeting cell surface receptors and uses thereof” (Full-Life Te[…] Limited, priority 2021, dated 2025) come the findings set out here.

Sequences of proteins named here, by UniProt entry; tags and fusion partners are left off.
UniProt Q04609, whole entry: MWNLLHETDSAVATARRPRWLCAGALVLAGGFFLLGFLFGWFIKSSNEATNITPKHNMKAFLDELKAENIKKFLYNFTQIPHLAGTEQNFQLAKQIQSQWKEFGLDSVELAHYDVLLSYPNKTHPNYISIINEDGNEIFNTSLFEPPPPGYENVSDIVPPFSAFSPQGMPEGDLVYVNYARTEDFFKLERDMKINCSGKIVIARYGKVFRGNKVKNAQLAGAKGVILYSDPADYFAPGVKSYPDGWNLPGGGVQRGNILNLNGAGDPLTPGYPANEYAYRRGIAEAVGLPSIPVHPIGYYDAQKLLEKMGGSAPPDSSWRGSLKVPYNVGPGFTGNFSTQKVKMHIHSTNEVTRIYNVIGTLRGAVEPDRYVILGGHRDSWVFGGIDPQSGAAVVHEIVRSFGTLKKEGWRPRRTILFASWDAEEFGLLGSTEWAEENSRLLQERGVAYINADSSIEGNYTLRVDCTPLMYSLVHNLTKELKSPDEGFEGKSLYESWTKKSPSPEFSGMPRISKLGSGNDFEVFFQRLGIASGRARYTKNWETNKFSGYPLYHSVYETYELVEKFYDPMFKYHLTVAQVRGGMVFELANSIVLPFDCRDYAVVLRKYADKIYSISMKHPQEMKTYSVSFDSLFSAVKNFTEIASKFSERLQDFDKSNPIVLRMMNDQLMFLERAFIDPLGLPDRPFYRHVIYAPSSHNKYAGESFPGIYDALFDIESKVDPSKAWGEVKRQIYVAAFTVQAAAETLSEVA

The test system of one series is LNCap tumor-bearing mice. As to the kind of experiment: Biodistribution study in CB-17 SCID mice bearing LNCap tumor. The format is in vivo, mouse. The conditions noted are these: for T at 24 h (tumor uptake) / T/K at 24 h (tumor uptake/kidney uptake) / T at 96 h (tumor uptake) / T/K at 96 h (tumor uptake/kidney uptake): LNCap tumor-bearing mice. The protocol: Biodistribution Study in CB-17 SCID Mice Bearing LNCap Tumor
All animal care and experimental procedure were performed by following the animal protocols approved by the ethics committee of China Institute of Radiation Protection. The CB-17 SCID mice (Charles River, Beijing) were utilized for these studies. […] These mice received subcutaneous rear flank injections of approximately 4×10^6 LNCap cells suspended in 200 μL of phosphate-buffered saline (PBS) and Matrigel (Corning) (1/1).

Series [1] can be described thus: Ex-vivo mouse plasma stability study of ^177Lu-labeled compounds. It is filed as in vitro ADME. The conditions noted are these: 37° C. How it is done:
Plasma Stability Study (Mouse and Human)
Mouse blood was collected via cardiac puncture of the left ventricle. Blood was placed into heparin-coated microfuge tubes and then centrifuged at 3500 rpm for 10 min to separate plasma for stability studies. Human plasma was purchased directly.
At each time point (0, 1, 2, 4, 24, 48 72 h), an aliquot of 25 μL sample was taken and mixed with 100 μL methanol containing 1% formic acid, vertex for 30-60 sec, then centrifuged at 20000 rpm for 10 min. 100 μL supernatant was collected and diluted with 40 μL H2O. 100 μL of the resulting mixture was injected to radio-HPLC for stability assessment, as shown examples FIG. 2 and FIG. 3. The best-fit T½ value of test compounds were calculated by fitting the data with linear or non-linear regression using GraphPad Prism 8.0.1.

Series [2] has as its system PC-3 PIP tumor-bearing mice. As to the kind of experiment: Biodistribution study in SCID mice bearing PC3-PIP tumor. The conditions noted are these: PC3 PIP tumor-bearing mice. It is filed as in vivo, mouse. How it is done:
Biodistribution Study in SCID Mice Bearing PC3-PIP Tumor
Severe combined immunodeficient (ICR-SCID) mice from the Institute of Cancer Research (Taconic Farms, Germantown, NY) were utilized for these studies. […] These mice received bilateral subcutaneous rear flank injections of approximately 10×10^6 PC-3 PIP cells (prostate cancer cell PC-3 stably expressing human PSMA) suspended in 100 μL of 0.9% NaCl. […] The tissues and organs were weighed, counted in a PerkinElmer Wizard 3 automatic γ counter, and the percent injected dose (% ID) and % ID/g of each organ or tissue were calculated, as shown in Tables 5-24 and FIG. 1 and FIG. 2.

For another series, the target named is T1, PSMA (Homo sapiens, UniProt Q04609).
T1 construct: host or cells: LNCaP cells
The series is described as follows: Cell-based radioligand competitive binding assay (^125I-C-8, LNCaP cells). The conditions noted are these: for Relative Binding Affinity: based on the mean value of the IC50 number, C-1 = 1.00. The protocol: The culture medium was replaced with fresh medium every 2-3 days. Experiments were performed with cells at 70-80% confluence.
The final volume in each well was maintained at 200 μL and insufficient volume was adjusted by the binding buffer.

Series [3] deals with metastatic castration-resistant prostate cancer (mCRPC) patients. The series is described as follows: Human imaging (PET/CT, whole-body scintigraphy and SPECT/CT). The format is in vivo. The conditions noted are these: 4 mCRPC patients. How it is done: Whole-body PET/CT acquisitions were performed with a United Imaging, uMI780 scanner ˜60 min after the dosing of 0.05 mCi per kilogram body weight of ^68Ga-PSMA11 (gozetotide).

[4] abbreviates: * = value obtained using nonlinear regression.

Turning to “4pIBA-gGlu-OEG-OEG-Lys(-ESL1-DOTA)-OEG-Trx-2NaI-eKuE [Example I-69]”, in the series on LNCap tumor-bearing mice, the “T at 24 h (tumor uptake)” value was 37.9, the “T/K at 24 h (tumor uptake/kidney uptake)” value was determined as 1.84, the “T at 96 h (tumor uptake)” value was 26.7 and the “T/K at 96 h (tumor uptake/kidney uptake)” value came to 2.35. Besides, in the series on LNCap tumor-bearing mice (mice bearing LNCap tumor, compared to ABL-56 (C-10) or C-9), the “uptake ratio between tumor to kidney” value is reported as “improved uptake ratio between tumor to kidney”.

Regarding “(HO-C18-gGlu-Lys(-OEG-DOTA)-OEG-OEG-OEG-NH2CH2CH2NH-TMA(-OEG-Trx-2NaI-eKuE)2 [Example C-7, reference compound]”, in series [1], the “% Remaining 0 min” value is 100%, the “% Remaining 1 h” value is 100%, the “% Remaining 4 h” value was 100% and the “% Remaining 24 h” value was found to be 100%. In series [1], the “% Remaining 48 h” value is reported as 100% and the “% Remaining 72 h” value was 100%. Also, the “T½ (h)” value in series [1] (setting [4]) is reported as “Stable”. In series [2], the “T at 24 h (tumor uptake)” value worked out at 31.4, the “T/K at 24 h (tumor uptake/kidney uptake)” value stood at 1.14, the “T at 96 h (tumor uptake)” value came out at 48.7 and the “T/K at 96 h (tumor uptake/kidney uptake)” value came to 3.00. Moreover, the “LogIC50 Mean” value at PSMA (log10 of IC50 (negative values), nonlin fit, LNCaP cells, ^125I-C-8 radioligand) was −7.766. Besides, the IC50 – broadly, the concentration that gives 50% inhibition – on PSMA (nonlin fit, LNCaP cells, ^125I-C-8 radioligand, scientific notation, unit inferred) came out at 17.2 nM.

For “(HO—C18)-gGlu-OEG-OEG-OEG-OEG-OEG-Glu-Arg-Gly-Glu-Thr-Gly-Pro-Ser-Gly-OEG-Lys(-ESL1-DOTA)-Trx-2NaI-eKuE [Example I-32]”, on PSMA, the “Relative Binding Affinity” value came to 0.04.

For “C16-gGlu-K(DOTA)-Trx-2NaI-eKuE [Example C-5, reference compound]”, at PSMA, the “Relative Binding Affinity” value is 0.04.

With “C16-gGlu-OEG-OEG-OEG-K(DOTA)-Trx-2NaI-eKuE [Example C-3, reference compound]”, the “Relative Binding Affinity” value on PSMA was determined as 0.02.

Take “DOTA-gGlu(-eLys-4pIBA)-Trx-2NaI-eKuE [Example C-9, reference compound]”: in the series with LNCap tumor-bearing mice, the “T at 24 h (tumor uptake)” value is recorded as 45.7, the “T/K at 24 h (tumor uptake/kidney uptake)” value was 1.27, the “T at 96 h (tumor uptake)” value worked out at 52.5 and the “T/K at 96 h (tumor uptake/kidney uptake)” value came to 0.89. The “uptake ratio between tumor to kidney” value with LNCap tumor-bearing mice (compared to PSMA-617 (C-1)) is on record as “poor uptake ratio between tumor to kidney”.

As for “HO-C18-gGlu-K(DOTA)-Trx-2NaI-eKuE [Example C-4, reference compound]”, the “Relative Binding Affinity” value at PSMA came to 0.03.

On to “HO-C18-gGlu-OEG-OEG-ESL1-Gly-Gly-Gly-Lys(DOTA)-OEG-Trx-2NaI-eKuE [Example I-58]”, for which, in series [1], the “% Remaining 0 min” value was determined as 100%, the “% Remaining 1 h” value is 100%, the “% Remaining 4 h” value is listed as 87.4% and the “% Remaining 48 h” value came to 52.2%. The “% Remaining 72 h” value in series [1] was determined as 37.2%. The “T½” value in series [1] (setting [4]) is 45.8 h.

“HO-C18-gGlu-OEG-OEG-Gly-4hPA-OEG-Lys(DOTA)-Trx-2NaI-eKuE [Example I-53]”: in series [1], the “% Remaining 0 min” value was 100%, the “% Remaining 1 h” value is 82.1%, the “% Remaining 4 h” value turned out to be 53.0% and the “% Remaining 24 h” value was determined as 25.2%. In series [1], the “% Remaining 48 h” value was 17.4% and the “% Remaining 72 h” value worked out at 0%. The “T½ (h)” value in series [1] (setting [4]) is on record as 5.2* h.

“HO-C18-gGlu-OEG-OEG-Gly-5hPA-Lys(DOTA)-OEG-Trx-2NaI-eKuE [Example I-49]”: in series [1], the “% Remaining 0 min” value stood at 100%, the “% Remaining 1 h” value is reported as 100%, the “% Remaining 4 h” value stood at 83.1% and the “% Remaining 24 h” value came out at 54.2%. Further, in series [1], the “% Remaining 48 h” value is given as 46.5% and the “% Remaining 72 h” value worked out at 32.4%. Moreover, the “T½ (h)” value in series [1] (setting [4]) is 33.0* h. In series [2], the “T at 24 h (tumor uptake)” value is 35.1, the “T/K at 24 h (tumor uptake/kidney uptake)” value came to 3.49, the “T at 96 h (tumor uptake)” value was 26.0 and the “T/K at 96 h (tumor uptake/kidney uptake)” value is on record as 13.4.

Regarding “HO-C18-gGlu-OEG-OEG-Gly-6hHA-Lys(DOTA)-OEG-Trx-2NaI-eKuE [Example I-50]”, in series [1], the “% Remaining 0 min” value was 100%, the “% Remaining 1 h” value came to 100%, the “% Remaining 4 h” value was found to be 58.4% and the “% Remaining 24 h” value was 13.7%. In addition, in series [1], the “% Remaining 48 h” value was determined as 8.87% and the “% Remaining 72 h” value turned out to be 0%. Further, in series [1] (setting [4]), the “T½ (h)” value is recorded as 5.7* h.

“HO-C18-gGlu-OEG-OEG-Leu-4hBA-OEG-Lys(DOTA)-Trx-2NaI-eKuE [Example I-54]”: in series [1], the “% Remaining 0 min” value came to 100%, the “% Remaining 1 h” value worked out at 90.7%, the “% Remaining 4 h” value worked out at 11.2% and the “% Remaining 24 h” value came out at 0%. In series [1], the “% Remaining 48 h” value came out at 0% and the “% Remaining 72 h” value was 0%. Besides, the “T½ (h)” value in series [1] (setting [4]) is 2.1* h.

As to “HO-C18-gGlu-OEG-OEG-Lys(-ESL1-OEG-DOTA)-OEG-Trx-2NaI-eKuE [Example I-47]”, in series [1], the “% Remaining 0 min” value is listed as 100%, the “% Remaining 1 h” value is given as 100%, the “% Remaining 4 h” value came to 94.7% and the “% Remaining 24 h” value is on record as 81.5%. In series [1], the “% Remaining 48 h” value stood at 76.1% and the “% Remaining 72 h” value is listed as 59.6%. In addition, the “T½ (h)” value in series [1] (setting [4]) is 121* h.

For “HO-C18-gGlu-OEG-OEG-OEG-Lys(DOTA)-OEG-Trx-2NaI-eKuE [Example C-6, reference compound]”, in series [1], the “% Remaining 0 min” value is recorded as 100%, the “% Remaining 1 h” value is listed as 100%, the “% Remaining 4 h” value is listed as 100% and the “% Remaining 24 h” value amounted to 100%. Further, in series [1], the “% Remaining 48 h” value is reported as 100% and the “% Remaining 72 h” value is 100%. Further, in series [1] (setting [4]), the “T½ (h)” value was “Stable”. Further, in series [2], the “T at 24 h (tumor uptake)” value is 49.7, the “T/K at 24 h (tumor uptake/kidney uptake)” value was determined as 2.54, the “T at 96 h (tumor uptake)” value was found to be 42.3 and the “T/K at 96 h (tumor uptake/kidney uptake)” value is 6.50.

In the case of “HO-C20-gGlu-OEG-OEG-ESL1-Lys(DOTA)-OEG-Trx-2NaI-eKuE [Example I-25]”, the “Relative Binding Affinity” value at PSMA is 0.20.

With ^68Ga-PSMA11, the “uptake in salivary glands” value in series [3] is reported as “high uptake”.
